Source: US11717508B2, “Compounds, compositions, and methods for inhibiting bacterial growth” (priority 2016, dated 2023)
Like-named read-outs stand apart in the source and are kept apart here.

System: DosRST regulon
Assay type: cell-based

## C[C@@H]1CC[C@H]2[C@@H](C)C(=O)O[C@@H]3O[C@]4(C)CC[C@@H]1[C@]32OO4 [HC101A, artemisinin, reference compound]
Gene MT0037 (Rv0032 bioF2)
  WT DMSO/WT HC101A Fold change: 0.3268
Gene MT0038 (Rv0033)
  WT DMSO/WT HC101A Fold change: 0.1722
Gene MT0040 (Rv0035 fadD34)
  WT DMSO/WT HC101A Fold change: 0.3051
Gene MT0055
  WT DMSO/WT HC101A Fold change: 0.4096
Gene MT0062 (Rv0056 rp11)
  WT DMSO/WT HC101A Fold change: 0.4799
Gene MT0086 (Rv0079)
  WT DMSO/WT HC101A Fold change: 0.4021
Gene MT0105 (Rv0096 PPE)
  WT DMSO/WT HC101A Fold change: 0.3338
Gene MT0106 (Rv0097)
  WT DMSO/WT HC101A Fold change: 0.3195
Gene MT0107 (Rv0098)
  WT DMSO/WT HC101A Fold change: 0.3181
Gene MT0108 (Rv0099 fadD10)
  WT DMSO/WT HC101A Fold change: 0.4806
Gene MT0117
  WT DMSO/WT HC101A Fold change: 0.4973
Gene MT0122 (Rv0113 gmhA)
  WT DMSO/WT HC101A Fold change: 0.4892
Gene MT0124
  WT DMSO/WT HC101A Fold change: 0.2581
Gene MT0175 (Rv0166 fadD5)
  WT DMSO/WT HC101A Fold change: 0.2572
Gene MT0176
  WT DMSO/WT HC101A Fold change: 0.4108
Gene MT0178 (Rv0169 mcel)
  WT DMSO/WT HC101A Fold change: 0.3155
Gene MT0179 (Rv0170)
  WT DMSO/WT HC101A Fold change: 0.2962
Gene MT0180 (Rv0171)
  WT DMSO/WT HC101A Fold change: 0.3196
Gene MT0181 (Rv0172)
  WT DMSO/WT HC101A Fold change: 0.353
Gene MT0182 (Rv0173 IprK)
  WT DMSO/WT HC101A Fold change: 0.3213
Gene MT0183 (Rv0174)
  WT DMSO/WT HC101A Fold change: 0.4165
Gene MT0241 (Rv0231 fadE4)
  WT DMSO/WT HC101A Fold change: 0.4159
Gene MT0244 (Rv0233 nrdB)
  WT DMSO/WT HC101A Fold change: 0.3457
Gene MT0329 (Rv0315)
  WT DMSO/WT HC101A Fold change: 0.3324
Gene MT0417
  WT DMSO/WT HC101A Fold change: 0.4024
Gene MT0423 (Rv0410c pknG)
  WT DMSO/WT HC101A Fold change: 0.2591
Gene MT0424 (Rv0411c glnH)
  WT DMSO/WT HC101A Fold change: 0.3179
Gene MT0425 (Rv0412c)
  WT DMSO/WT HC101A Fold change: 0.3527
Gene MT0429 (Rv0416)
  WT DMSO/WT HC101A Fold change: 0.3752
Gene MT0434
  WT DMSO/WT HC101A Fold change: 0.4735
Gene MT0524
  WT DMSO/WT HC101A Fold change: 0.4713
Gene MT0595 (Rv0569)
  WT DMSO/WT HC101A Fold change: 0.1538
Gene MT0596 (Rv0570 nrdZ)
  WT DMSO/WT HC101A Fold change: 0.04371
Gene MT0597 (Rv0571c)
  WT DMSO/WT HC101A Fold change: 0.2499
Gene MT0599 (Rv0572c)
  WT DMSO/WT HC101A Fold change: 0.07978
Gene MT0600
  WT DMSO/WT HC101A Fold change: 0.05061
Gene MT0601 (Rv0573c)
  WT DMSO/WT HC101A Fold change: 0.126
Gene MT0602 (Rv0574c)
  WT DMSO/WT HC101A Fold change: 0.08476
Gene MT0637 (Rv0608)
  WT DMSO/WT HC101A Fold change: 0.4754
Gene MT0735 (Rv0708 rplP)
  WT DMSO/WT HC101A Fold change: 0.4557
Gene MT0736 (Rv0709 rpmC)
  WT DMSO/WT HC101A Fold change: 0.478
Gene MT0741
  WT DMSO/WT HC101A Fold change: 0.4411
Gene MT0741.1 (Rv0715 rplX)
  WT DMSO/WT HC101A Fold change: 0.4264
Gene MT0742.1 (Rv0717 rpsN)
  WT DMSO/WT HC101A Fold change: 0.4807
Gene MT0747 (Rv0722 rpmD)
  WT DMSO/WT HC101A Fold change: 0.3809
Gene MT0845 (Rv0823c)
  WT DMSO/WT HC101A Fold change: 0.451
  log2 Fold change: −1.149
Gene MT0846 (Rv0824c desA1)
  WT DMSO/WT HC101A Fold change: 0.316
Gene MT0877 (Rv0854)
  WT DMSO/WT HC101A Fold change: 0.4775
Gene MT0898
  WT DMSO/WT HC101A Fold change: 0.1015
Gene MT0908 (Rv0885)
  WT DMSO/WT HC101A Fold change: 0.2626
Gene MT0909 (Rv0886 fprB)
  WT DMSO/WT HC101A Fold change: 0.3541
Gene MT0911 (Rv0888)
  WT DMSO/WT HC101A Fold change: 0.1946
Gene MT1002 (Rv0974c accD2)
  WT DMSO/WT HC101A Fold change: 0.2898
Gene MT1019 (Rv0990c)
  WT DMSO/WT HC101A Fold change: 0.445
Gene MT1020
  WT DMSO/WT HC101A Fold change: 0.387
Gene MT1056 (Rv1037c)
  WT DMSO/WT HC101A Fold change: 0.385
Gene MT1095 (Rv1065)
  WT DMSO/WT HC101A Fold change: 0.4439
Gene MT1106 (Rv1076 lipU)
  WT DMSO/WT HC101A Fold change: 0.4933
Gene MT1126 (Rv1094 dosA2)
  WT DMSO/WT HC101A Fold change: 0.3974
Gene MT1214 (Rv1177 fdxC)
  WT DMSO/WT HC101A Fold change: 0.4072
Gene MT1233 (Rv1195 PE)
  WT DMSO/WT HC101A Fold change: 0.2078
Gene MT1234 (Rv1196 PPE)
  WT DMSO/WT HC101A Fold change: 0.2727
Gene MT1235
  WT DMSO/WT HC101A Fold change: 0.3284
Gene MT1236
  WT DMSO/WT HC101A Fold change: 0.2469
Gene MT1314 (Rv1277)
  WT DMSO/WT HC101A Fold change: 0.4624
Gene MT1322 (Rv1284)
  WT DMSO/WT HC101A Fold change: 0.2486
Gene MT1385
  WT DMSO/WT HC101A Fold change: 0.4002
Gene MT1414.1
  WT DMSO/WT HC101A Fold change: 0.4164
Gene MT1430 (Rv1386 PE)
  WT DMSO/WT HC101A Fold change: 0.4838
Gene MT1431 (Rv1387 PPE)
  WT DMSO/WT HC101A Fold change: 0.3915
